Data set [1] addresses T1, recombinant TRX-NtMPO1 fusion protein (Nicotiana tabacum, UniProt A0A1S4BDC4).
T1 sequence (A0A1S4BDC4 1-790): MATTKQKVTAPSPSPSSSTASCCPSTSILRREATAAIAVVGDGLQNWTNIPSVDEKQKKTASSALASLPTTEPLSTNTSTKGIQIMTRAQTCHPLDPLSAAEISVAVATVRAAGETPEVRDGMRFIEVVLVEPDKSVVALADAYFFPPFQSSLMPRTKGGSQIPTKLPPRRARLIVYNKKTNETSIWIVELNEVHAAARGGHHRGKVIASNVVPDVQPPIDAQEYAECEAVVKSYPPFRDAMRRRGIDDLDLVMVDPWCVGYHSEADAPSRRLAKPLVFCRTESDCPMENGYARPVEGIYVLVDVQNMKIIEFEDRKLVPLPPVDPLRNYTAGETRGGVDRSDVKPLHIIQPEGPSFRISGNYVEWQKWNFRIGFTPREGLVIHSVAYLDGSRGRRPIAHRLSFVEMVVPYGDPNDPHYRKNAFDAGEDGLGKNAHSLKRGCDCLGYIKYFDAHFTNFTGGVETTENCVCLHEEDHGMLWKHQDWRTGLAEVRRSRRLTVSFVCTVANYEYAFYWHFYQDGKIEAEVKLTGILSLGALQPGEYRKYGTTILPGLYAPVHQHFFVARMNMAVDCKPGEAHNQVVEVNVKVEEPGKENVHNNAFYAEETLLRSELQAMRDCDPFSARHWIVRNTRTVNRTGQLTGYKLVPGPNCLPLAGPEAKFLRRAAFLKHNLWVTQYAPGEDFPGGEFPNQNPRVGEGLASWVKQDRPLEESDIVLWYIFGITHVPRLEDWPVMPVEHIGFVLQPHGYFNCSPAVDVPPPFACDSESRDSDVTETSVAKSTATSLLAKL
As to the kind of experiment: spectrophotometric amine oxidase assay of recombinant TRX-NtMPO1 with diamine substrates. How it is done:
This modified fragment was cloned into pCR2.1 (Invitrogen) to yield pJGJ367. […] Finally, a 2.6 Kb NcoI-XhoI (partial) fragment was cut from pJGJ369 and ligated into pET32a+ similarly cut, to yield pJGJ389. Plasmid pJGJ389 was transformed into the Rosetta E. coli strain (Novagen, Madison, Wis.) for expression of a recombinant […] protein. Mid-log phase Rosetta/pJGJ389 cells were cultured overnight in LB media supplemented with 100 ug/ml Ampicillin, 30 ug/ml Chloramphenicol, and 0.2 mM isopropyl-β-D-thiogalactoside at 18° C. at 250 rpm. The cells were pelleted, lysed, and the native protein extract incubated with Ni-NTA superflow resin, and the TRX-MPO1 was eluted as per manufacture's instructions (Qiagen, Valencia, Calif.). The TRX-MPO1 enriched extract was mixed 1:1 (v:v) with 100% glycerol and stored at −20° C.

The subject of data set [2] is CNCCCCN. Nature of the data set: purified protein, by the assay type. The settings on record: other: substrate kinetics, Lineweaver-Burk plots, three independent extracts; 18.0 °C.
The subject of data set [3] is NCCCCCN. Nature of the data set: purified protein, by the assay type. The conditions noted are these: other: substrate kinetics, Lineweaver-Burk plots, three independent extracts; 18.0 °C.

The text below walks through data of patent US20090055964A1, “MPO1 GENE AND PROTEIN AND METHODS OF USE” (priority 2006, published 2009).

For orientation: Km means the concentration of substrate that gives half-maximal velocity.

Turning to `NCCCCN` [putrescine], the “oxidative deamination as substrate by recombinant TRX-MPO1” value in data set [1] is “oxidatively deaminated”. As for “recombinant TRX-NtMPO1 fusion protein (Nicotiana tabacum)”, the values for the Km in data set [2] and in data set [3] were 190 ± 20 µM and 1790 ± 160 µM, respectively.
